Patent publication US20220388964A1 (HiberCell, Inc., priority 2019, published 2022)

The chains behind the UniProt entries cited, without tags or fusion partners.
UniProt Q9P2K8, whole entry: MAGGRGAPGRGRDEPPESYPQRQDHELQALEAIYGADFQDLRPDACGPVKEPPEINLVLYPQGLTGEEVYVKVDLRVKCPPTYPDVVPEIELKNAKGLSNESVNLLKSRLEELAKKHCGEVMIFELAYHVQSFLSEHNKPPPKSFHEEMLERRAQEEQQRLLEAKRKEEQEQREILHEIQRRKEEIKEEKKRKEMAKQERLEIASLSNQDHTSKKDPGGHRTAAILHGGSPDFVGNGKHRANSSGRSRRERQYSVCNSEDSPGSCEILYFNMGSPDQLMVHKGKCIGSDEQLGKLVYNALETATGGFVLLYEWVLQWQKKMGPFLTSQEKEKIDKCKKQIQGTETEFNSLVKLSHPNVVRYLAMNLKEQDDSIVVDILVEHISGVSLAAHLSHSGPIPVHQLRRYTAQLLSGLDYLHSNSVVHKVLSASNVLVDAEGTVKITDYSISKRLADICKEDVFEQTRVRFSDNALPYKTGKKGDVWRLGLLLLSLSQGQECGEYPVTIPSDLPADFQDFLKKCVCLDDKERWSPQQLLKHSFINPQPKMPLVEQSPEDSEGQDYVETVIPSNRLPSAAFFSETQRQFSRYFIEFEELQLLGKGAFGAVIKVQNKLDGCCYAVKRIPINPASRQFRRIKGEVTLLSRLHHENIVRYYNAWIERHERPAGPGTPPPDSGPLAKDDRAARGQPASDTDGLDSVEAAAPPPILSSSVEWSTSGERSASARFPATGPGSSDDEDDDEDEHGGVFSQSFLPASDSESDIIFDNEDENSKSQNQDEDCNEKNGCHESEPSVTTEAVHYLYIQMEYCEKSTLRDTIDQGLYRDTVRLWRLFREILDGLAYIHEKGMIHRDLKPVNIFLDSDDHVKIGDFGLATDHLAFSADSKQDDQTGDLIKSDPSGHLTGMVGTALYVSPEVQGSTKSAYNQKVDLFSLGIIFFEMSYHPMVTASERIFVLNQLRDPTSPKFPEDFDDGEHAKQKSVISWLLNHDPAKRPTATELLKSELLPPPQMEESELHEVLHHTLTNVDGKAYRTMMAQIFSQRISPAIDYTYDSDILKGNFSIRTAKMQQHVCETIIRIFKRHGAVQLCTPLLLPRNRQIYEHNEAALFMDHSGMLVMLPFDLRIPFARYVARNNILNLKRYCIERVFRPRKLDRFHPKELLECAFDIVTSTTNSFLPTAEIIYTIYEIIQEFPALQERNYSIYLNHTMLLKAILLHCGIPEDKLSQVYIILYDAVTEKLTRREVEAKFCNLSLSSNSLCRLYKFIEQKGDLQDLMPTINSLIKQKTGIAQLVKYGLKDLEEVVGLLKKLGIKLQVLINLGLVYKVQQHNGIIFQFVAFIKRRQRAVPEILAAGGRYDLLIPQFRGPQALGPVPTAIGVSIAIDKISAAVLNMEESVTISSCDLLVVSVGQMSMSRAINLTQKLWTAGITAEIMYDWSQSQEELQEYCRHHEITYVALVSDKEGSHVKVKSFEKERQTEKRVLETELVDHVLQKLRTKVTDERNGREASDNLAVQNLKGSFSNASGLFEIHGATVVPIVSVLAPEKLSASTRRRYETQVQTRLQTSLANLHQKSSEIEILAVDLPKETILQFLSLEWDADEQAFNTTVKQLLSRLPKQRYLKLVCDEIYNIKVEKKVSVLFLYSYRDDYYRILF

Biological target: GCN2 (Homo sapiens, UniProt Q9P2K8)
Experiment: TR-FRET biochemical assay for inhibition of GCN2 (Example 106, for Example 1-4BB)
Settings: Table 9

IC50	Compound
< 500 nM	Cc1c(C(C)O)cc(F)cc1S(=O)(=O)Nc1ccc(F)c(-c2ccc3c(-c4ncc[nH]4)n[nH]c3c2F)c1F (stereo not shown)
< 500 nM	O=S(=O)(Nc1ccc(F)c(-c2ccc3c(-c4ncc[nH]4)n[nH]c3c2F)c1F)c1cc(F)cc2c1CC[C@H]2O
< 500 nM	O=S(=O)(Nc1ccc(F)c(-c2ccc3c(-c4ncc[nH]4)n[nH]c3c2F)c1F)c1cc(F)cc2c1OCCC2O (stereo not shown)
< 500 nM	O=C1CCc2c1cc(F)cc2S(=O)(=O)Nc1ccc(F)c(-c2ccc3c(-c4ncc[nH]4)n[nH]c3c2F)c1F
< 500 nM	Cc1c(C(C)(C)O)cc(F)cc1S(=O)(=O)Nc1ccc(F)c(-c2ccc3c(-c4ncc[nH]4)n[nH]c3c2F)c1F
< 500 nM	O=S(=O)(Nc1ccc(F)c(-c2ccc3c(-c4ncc[nH]4)n[nH]c3c2F)c1F)c1cc(F)cc(CO)c1F
< 500 nM	O=S(=O)(Nc1ccc(F)c(-c2ccc3c(-c4ncc[nH]4)n[nH]c3c2F)c1F)c1cc(F)cc2c1CCC2O (stereo not shown)
< 500 nM	O=C1CCOc2c1cc(F)cc2S(=O)(=O)Nc1ccc(F)c(-c2ccc3c(-c4ncc[nH]4)n[nH]c3c2F)c1F
< 500 nM	O=S(=O)(Nc1ccc(F)c(-c2ccc3c(-c4ncc[nH]4)n[nH]c3c2F)c1F)c1cc(F)cc2c1CC/C2=N\O
< 500 nM	O=S(=O)(Nc1ccc(F)c(-c2ccc3c(-c4ncc[nH]4)n[nH]c3c2F)c1F)c1cc(F)cc2c1CC[C@@H]2O
2500 to 10000 nM	O=C1NCCc2cc(S(=O)(=O)Nc3ccc(F)c(-c4ccc5c(-c6ncc[nH]6)n[nH]c5c4F)c3F)cc(F)c21
< 500 nM	CC1=CCc2c1cc(F)cc2S(=O)(=O)Nc1ccc(F)c(-c2ccc3c(-c4ncc[nH]4)n[nH]c3c2F)c1F

Second part, the compound before the results:

Compound	IC50
COc1ncc(Cl)cc1S(=O)(=O)Nc1ccc(F)c(-c2ccc3c(-c4[nH]ncc4C)n[nH]c3c2F)c1F	500 to 2500 nM
Cc1ncc(C#N)cc1S(=O)(=O)Nc1ccc(F)c(-c2ccc3c(C(=O)NCCCO)n[nH]c3c2F)c1F	500 to 2500 nM
O=C(Nc1cn[nH]c1)c1n[nH]c2c(F)c(-c3c(F)ccc(NS(=O)(=O)c4cc(F)cc5c4CCC5O)c3F)ccc12 (stereo not shown)	< 500 nM
Cc1nc(C)c(S(=O)(=O)Nc2ccc(F)c(-c3ccc4c(-c5ncc[nH]5)n[nH]c4c3F)c2F)s1	< 500 nM
COc1nc(C)c(F)cc1S(=O)(=O)Nc1ccc(F)c(-c2ccc3c(-c4ncc[nH]4)n[nH]c3c2F)c1F	< 500 nM
Cc1c(CO)cc(F)cc1S(=O)(=O)Nc1ccc(F)c(-c2ccc3c(C(=O)NCCCN(C)C)n[nH]c3c2F)c1F	< 500 nM
Cc1ncc(C#N)cc1S(=O)(=O)Nc1ccc(F)c(-c2ccc3c(C(=O)NCCCN(C)C)n[nH]c3c2F)c1F	< 500 nM
Cc1cc(S(=O)(=O)Nc2cc(F)cc(-c3ccc4c(-c5ncc[nH]5)n[nH]c4c3F)c2F)sn1	500 to 2500 nM
COc1ncc(Cl)cc1S(=O)(=O)Nc1ccc(F)c(-c2ccc3c(-c4ccn[nH]4)n[nH]c3c2F)c1F [Example 2BZ, 5-chloro-N-(2,4-difluoro-3-(7-fluoro-3-(1H-pyrazol-5-yl)-1H-indazol-6-yl)phenyl)-2-methoxypyridine-3-sulfonamide]	< 500 nM
Cc1ncsc1S(=O)(=O)Nc1ccc(F)c(-c2ccc3c(-c4ncc[nH]4)n[nH]c3c2F)c1F	< 500 nM
CC(=O)Nc1nc(C)c(S(=O)(=O)Nc2cc(F)cc(-c3ccc4c(-c5ncc[nH]5)n[nH]c4c3F)c2F)s1	< 500 nM
COc1ncc(Cl)cc1S(=O)(=O)Nc1ccc(F)c(-c2ccc3c(-c4cc(C(F)(F)F)n[nH]4)n[nH]c3c2F)c1F	500 to 2500 nM
Cc1c(C(O)C(F)(F)F)cc(F)cc1S(=O)(=O)Nc1ccc(F)c(-c2ccc3c(-c4ncc[nH]4)n[nH]c3c2F)c1F (stereo not shown)	500 to 2500 nM
